Experimental data published in US7928139B2 (Amgen Inc., priority 2006, dated 2011).

Sequences of proteins named here, by UniProt entry; tags and fusion partners are left off.
UniProt Q9GZT9, whole entry: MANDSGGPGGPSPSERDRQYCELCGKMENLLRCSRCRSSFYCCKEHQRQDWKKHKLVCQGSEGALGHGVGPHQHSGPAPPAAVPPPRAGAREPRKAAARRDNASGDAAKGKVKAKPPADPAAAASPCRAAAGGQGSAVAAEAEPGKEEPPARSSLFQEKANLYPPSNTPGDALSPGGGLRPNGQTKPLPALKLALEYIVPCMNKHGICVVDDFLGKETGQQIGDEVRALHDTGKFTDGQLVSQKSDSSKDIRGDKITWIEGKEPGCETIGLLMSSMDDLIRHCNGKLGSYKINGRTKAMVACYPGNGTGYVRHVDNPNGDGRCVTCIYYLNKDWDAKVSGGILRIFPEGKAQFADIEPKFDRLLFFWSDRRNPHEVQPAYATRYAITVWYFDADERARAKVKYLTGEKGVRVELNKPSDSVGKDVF

These molecules were tested against HIF PHD2 (Homo sapiens, UniProt Q9GZT9) (assay: PHD2 inhibition assay (TR-FRET, VCB-Eu detection of hydroxylated P564-HIF1α peptide)). Details: read-out: PHD2 IC50, 2 nM PHD2, 100 nM P564-HIF1α peptide, 0.25 μM 2-oxoglutarate, 100 μM FeCl2, 2 mM ascorbic acid.

Row | Compound | IC50 [nM]
1 | CC1(C#N)C(=O)C(C(=O)NCC(=O)O)=C(O)c2cc(F)c(F)cc21 (single isomer, unassigned) | < 100
2 | CC1(C#N)C(=O)C(C(=O)NCC(=O)O)=C(O)c2ccc(F)cc21 (single isomer, unassigned) | < 100
3 | CC1(C#N)C(=O)C(C(=O)NCC(=O)O)=C(O)c2cc(F)ccc21 (single isomer, unassigned) | < 100
4 | CC1(C#N)C(=O)C(C(=O)CCC(=O)O)=C(O)c2cc(Cl)ccc21 (single isomer, unassigned) | 500 to 1000
